The values that follow come from patent US20170157260A1, “Glycosylated Polypeptide and Drug Composition Containing said Polypeptide” (Glytech, Inc., priority 2011, published 2017).

Protein sequences, listed by entry. Tags and fused reporters are not part of them. Lines headed by an entry give the natural chain unless they say otherwise; changes in a name come on top.
UniProt P30872: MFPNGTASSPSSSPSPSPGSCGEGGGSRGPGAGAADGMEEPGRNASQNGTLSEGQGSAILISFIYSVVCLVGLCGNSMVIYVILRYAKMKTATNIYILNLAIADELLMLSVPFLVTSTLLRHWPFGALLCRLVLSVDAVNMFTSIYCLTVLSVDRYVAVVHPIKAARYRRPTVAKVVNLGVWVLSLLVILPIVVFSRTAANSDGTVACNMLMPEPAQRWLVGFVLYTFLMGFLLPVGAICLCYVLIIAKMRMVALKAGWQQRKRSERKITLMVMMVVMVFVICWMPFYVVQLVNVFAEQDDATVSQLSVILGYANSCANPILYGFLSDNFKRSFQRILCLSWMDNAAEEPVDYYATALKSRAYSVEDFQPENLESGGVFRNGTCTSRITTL
UniProt P32745: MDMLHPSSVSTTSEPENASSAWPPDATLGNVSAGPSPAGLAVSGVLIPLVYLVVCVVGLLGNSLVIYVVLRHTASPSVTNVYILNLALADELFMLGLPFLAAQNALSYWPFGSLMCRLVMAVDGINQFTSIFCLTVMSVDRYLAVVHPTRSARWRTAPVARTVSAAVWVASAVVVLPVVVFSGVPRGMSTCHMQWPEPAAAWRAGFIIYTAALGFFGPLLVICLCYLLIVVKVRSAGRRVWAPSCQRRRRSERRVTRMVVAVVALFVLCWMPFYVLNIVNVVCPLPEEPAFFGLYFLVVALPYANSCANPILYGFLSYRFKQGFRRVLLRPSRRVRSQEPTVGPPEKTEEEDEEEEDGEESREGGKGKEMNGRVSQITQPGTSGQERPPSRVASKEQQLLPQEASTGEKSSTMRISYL
UniProt P35346: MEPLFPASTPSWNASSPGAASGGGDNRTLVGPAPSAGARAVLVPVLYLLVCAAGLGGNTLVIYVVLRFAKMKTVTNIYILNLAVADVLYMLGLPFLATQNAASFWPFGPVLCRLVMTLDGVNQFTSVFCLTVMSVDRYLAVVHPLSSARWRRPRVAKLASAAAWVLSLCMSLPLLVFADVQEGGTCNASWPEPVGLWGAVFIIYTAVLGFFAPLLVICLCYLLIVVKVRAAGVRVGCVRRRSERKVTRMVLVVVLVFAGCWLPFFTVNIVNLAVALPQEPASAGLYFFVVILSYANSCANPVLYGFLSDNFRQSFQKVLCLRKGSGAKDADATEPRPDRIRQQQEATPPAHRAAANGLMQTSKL
UniProt P30874: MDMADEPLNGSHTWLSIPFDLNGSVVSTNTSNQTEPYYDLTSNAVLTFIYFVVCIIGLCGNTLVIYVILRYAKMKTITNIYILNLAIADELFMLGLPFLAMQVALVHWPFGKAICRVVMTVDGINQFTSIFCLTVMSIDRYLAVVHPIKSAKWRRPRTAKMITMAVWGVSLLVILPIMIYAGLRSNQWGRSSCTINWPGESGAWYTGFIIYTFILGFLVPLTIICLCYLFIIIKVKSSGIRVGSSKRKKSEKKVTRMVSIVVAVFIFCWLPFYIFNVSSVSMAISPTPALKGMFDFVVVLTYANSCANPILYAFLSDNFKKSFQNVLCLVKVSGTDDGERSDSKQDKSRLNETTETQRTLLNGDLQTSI
UniProt P31391: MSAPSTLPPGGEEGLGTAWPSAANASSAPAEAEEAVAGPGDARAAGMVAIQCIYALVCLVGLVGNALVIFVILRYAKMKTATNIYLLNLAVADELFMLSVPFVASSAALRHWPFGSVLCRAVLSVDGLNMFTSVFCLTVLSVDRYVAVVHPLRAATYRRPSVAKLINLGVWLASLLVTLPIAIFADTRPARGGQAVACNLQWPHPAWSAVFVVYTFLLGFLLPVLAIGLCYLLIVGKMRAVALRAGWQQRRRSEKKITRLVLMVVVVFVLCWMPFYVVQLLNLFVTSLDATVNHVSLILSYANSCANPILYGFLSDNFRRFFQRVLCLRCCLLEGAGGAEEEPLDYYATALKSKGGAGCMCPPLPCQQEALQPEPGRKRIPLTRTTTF

Like-named read-outs stand apart in the source and are kept apart here.

The target in data set [1] is T1, SSTR1 (Homo sapiens, UniProt P30872).
Data set [2] has as its target T2, SSTR3 (Homo sapiens, UniProt P32745).
Data set [3] concerns the target T3, SSTR5 (Homo sapiens, UniProt P35346).
Data set [4] concerns the target T4, SSTR2 (Homo sapiens, UniProt P30874).
Data set [5] can be described thus: Pharmacokinetics test with rats (intravenous and subcutaneous administration). The following applies: rats; for BA: subcutaneous vs intravenous.
The test system of data set [6] is growth hormone (GH) production. In words: GH production suppression test with rats. The class given is in vivo. The following applies: Table 8 (Example 87), vehicle 1012.
In a further data set the target is SSTR4 (Homo sapiens, UniProt P31391). In words: Agonist activity evaluation (cAMP production suppression), SSTR4 receptor expression cells. The class given is cell-based.
Data set [7] concerns the target T3, SSTR5. In words: Competitive binding assay, SSTR5. The following applies: Table 3B, Example 67-2, competitive binding assay; for IC50: read-out: SSTR5 IC50; for Ki: read-out: SSTR5 Ki.
In data set [8] the target is T4, SSTR2. In words: Competitive binding assay, SSTR2. The note with it: Table 3B, Example 67-2, competitive binding assay; for IC50: read-out: SSTR2 IC50; for Ki: read-out: SSTR2 Ki.
For data set [9], the target named is T1, SSTR1. The data set can be described thus: Competitive binding assay, SSTR1. The note with it: Table 3B, Example 67-2, competitive binding assay; for Ki: read-out: SSTR1 Ki.
Data set [10] has as its target T2, SSTR3. The data set can be described thus: Competitive binding assay, SSTR3. The following applies: Table 3B, Example 67-2, competitive binding assay; for Ki: read-out: SSTR3 Ki.
Where [11] appears, read: Table 5A (Examples 69-72), spread in the line below.
[12] abbreviates: BA=(AUC(sc)/Dose(sc))/(AUC(iv)/Dose(iv)), Table 5A.
[13] abbreviates: read-out: IC50 of the agonist activity, SSTR4; Table 3E, Example 67-4.

For orientation: IC50 means the concentration that inhibits the measured activity by half. As usually defined, the Ki is a dissociation constant, usually derived from enzyme kinetics or from competition with a known ligand. In the case of 29C(disialo)-SRIF28 [Example 13], the IC50 on SSTR1 [1] stood at 4.43 nM; against SSTR3 [2], 7 nM; against SSTR5 [3] it was 3.73 nM; against SSTR2 [4] it was 0.738 nM. Moreover, the Ki stood at 3.67 nM at SSTR1 [1], 2.39 nM on SSTR3 [2], 2.11 nM at SSTR5 [3] and 0.392 nM at SSTR2 [4]. In [5] (Tables 5B-5F (Examples 73-84)), the “Intravenous administration C0” value is 359 nM. For the same substance, in [5] (Tables 5B-5F (Examples 73-84)), the “Intravenous administration MRT” value is on record as 25.3 min. In data set [5] (Tables 5B-5F (Examples 73-84)), the “Intravenous administration T1/2” value turned out to be 23.7 min.

On SSTR1 [1], A9C(disialo)-SRIF28 [Example 3] had a 50% inhibitory concentration (IC50) of 2.08 nM and a Ki of 1.72 nM. Further, on SSTR3 [2], it took 0.593 nM to reach half-maximal inhibition (IC50) and the Ki was determined as 0.203 nM. On SSTR5 [3], this substance registered a half-inhibitory concentration (IC50) of 0.471 nM and an inhibition constant (Ki) of 0.266 nM. Also, at SSTR2 [4], inhibition was half-maximal at 0.0741 nM (IC50) and the inhibitory constant (Ki) turned out to be 0.0394 nM. Moreover, in data set [6] (dose 1 nmol/kg), the “GH” value worked out at 577 ng/mL. In addition, the “GH” value in data set [6] (dose 10 nmol/kg) turned out to be 20 ng/mL. Also, in data set [5] (setting [11]), the “Intravenous administration AUC” value amounted to 4083 nM·min, the “Intravenous administration C0” value came to 547 nM, the “Intravenous administration MRT” value turned out to be 25.2 min and the “Intravenous administration t1/2” value came to 19.9 min. In data set [5] (setting [11]), the “Subcutaneous administration AUC” value amounted to 2462 nM·min, the “Subcutaneous administration Cmax” value is given as 30.2 nM, the “Subcutaneous administration MRT” value is 55.6 min and the “Subcutaneous administration t1/2” value was found to be 30.3 min. The substance also displayed a BA in data set [5] (setting [12]) of 60%.

At SSTR1 [1], “C(disialo)-C12 linker-SRIF14 [Example 19]” showed an IC50 of 15.5 nM. Further, at SSTR3 [2], the half-inhibitory concentration (IC50) amounted to 3.12 nM. The substance also showed an IC50 against SSTR5 [3] of 2.29 nM. For the same substance, at SSTR2 [4], 0.502 nM corresponded to half-maximal inhibition (IC50) and the affinity, expressed as Ki, was 0.267 nM. Moreover, the IC50 on SSTR4 (setting [13]) came out at 0.11 nM. Further, in data set [5] (Tables 5B-5F (Examples 73-84)), the “Intravenous administration AUC” value is 1686 nM·min, the “Intravenous administration C0” value was found to be 500 nM, the “Intravenous administration MRT” value was determined as 7.60 min and the “Intravenous administration T1/2” value is 11.0 min. Besides, in data set [5] (Tables 5B-5F (Examples 73-84)), the “Subcutaneous administration AUC” value was 345 nM·min, the “Subcutaneous administration Cmax” value is reported as 13.4 nM, the “Subcutaneous administration MRT” value is on record as 22.0 min and the “Subcutaneous administration T1/2” value was 14.4 min. The same substance displayed a BA in [5] (Tables 5B-5F (Examples 73-84)) of 21%.

For the substance K14C(disialo)-SRIF28 [Example 6], on SSTR1 [1], the half-maximal inhibitory concentration (IC50) worked out at 13.8 nM and the affinity, expressed as Ki, was 11.4 nM. On SSTR3 [2], this substance returned an IC50 of 2.59 nM and a Ki of 0.887 nM. On SSTR5 [3], this substance yielded an IC50 of 4.01 nM and a Ki of 2.27 nM. On SSTR2 [4], this substance gave a 50% inhibitory concentration (IC50) of 0.481 nM and a Ki of 0.256 nM. Further, in [6] (dose 10 nmol/kg), the “GH” value is recorded as 55 ng/mL. For the same substance, in data set [5] (Tables 5B-5F (Examples 73-84)), the “Intravenous administration AUC” value stood at 6278 nM·min, the “Intravenous administration C0” value stood at 884 nM, the “Intravenous administration MRT” value came out at 20.0 min and the “Intravenous administration T1/2” value came out at 20.4 min. In data set [5] (Tables 5B-5F (Examples 73-84)), the “Subcutaneous administration AUC” value was determined as 3945 nM·min, the “Subcutaneous administration Cmax” value is 57.5 nM, the “Subcutaneous administration MRT” value is listed as 55.1 min and the “Subcutaneous administration T1/2” value is given as 35.1 min. This substance registered a BA in data set [5] (Tables 5B-5F (Examples 73-84)) of 62%.

Take N5C(disialo)-SRIF28 [Example 2]: on SSTR1 [1], the concentration for half-maximal inhibition (IC50) turned out to be 1.1 nM and the affinity, expressed as Ki, was 0.912 nM. For the same substance, on SSTR3 [2], the half-maximal inhibitory concentration (IC50) stood at 0.278 nM and the Ki amounted to 0.095 nM. On SSTR5 [3], this substance came in with an IC50 of 0.458 nM and a Ki of 0.259 nM. Besides, at SSTR2 [4], the IC50 turned out to be 0.0945 nM and the affinity corresponds to a Ki of 0.0502 nM. The “GH” value in data set [6] (dose 1 nmol/kg) came out at 969 ng/mL. The “GH” value in data set [6] (dose 10 nmol/kg) came to 12 ng/mL. Moreover, in data set [5] (setting [11]), the “Intravenous administration AUC” value worked out at 4421 nM·min, the “Intravenous administration C0” value was found to be 496 nM, the “Intravenous administration MRT” value is reported as 22.9 min and the “Intravenous administration t1/2” value was 20.1 min. Also, in [5] (setting [11]), the “Subcutaneous administration AUC” value is 2392 nM·min, the “Subcutaneous administration Cmax” value amounted to 32.4 nM, the “Subcutaneous administration MRT” value worked out at 51.9 min and the “Subcutaneous administration t1/2” value was found to be 28.1 min. This substance gave a BA in data set [5] (setting [12]) of 54%.

Turning to N5N(disialo)-SRIF28 [Example 30], the inhibition constant Ki was determined as 2.5 nM on SSTR1 [1], 0.198 nM on SSTR3 [2], 0.263 nM at SSTR5 [3] and 0.0364 nM on SSTR2 [4]. Also, the figures for the IC50 at SSTR3 [2], against SSTR5 [3] and at SSTR2 [4] were 0.579 nM, 0.465 nM and 0.0685 nM, respectively.

With N19C(diMan)-SRIF28 [Example 52], the IC50 at SSTR5 [7] is 2.94 nM; at SSTR2 [8], 1.17 nM; on SSTR1 [9] (read-out: SSTR1 IC50), 6.58 nM; at SSTR4 (Table 3E, Example 67-4; read-out: IC50 of the agonist activity, SSTR4) it was 0.11 nM. For the same substance, the Ki on SSTR5 [7] stood at 1.66 nM; at SSTR2 [8] it was 0.62 nM; on SSTR1 [9] it was 5.44 nM; on SSTR3 [10], 0.53 nM.

With R13C(disialo)-SRIF28 [Example 5], on SSTR1 [1], the IC50 was found to be 15.4 nM and the affinity corresponds to a Ki of 13.6 nM. On SSTR3 [2], this substance returned a half-inhibitory concentration (IC50) of 2.87 nM and a Ki of 0.981 nM. At SSTR5 [3], the IC50 worked out at 3.28 nM and the Ki amounted to 1.85 nM. At SSTR2 [4], this substance gave a half-inhibitory concentration (IC50) of 0.31 nM and a Ki of 0.165 nM. In [6] (dose 10 nmol/kg), the “GH” value is recorded as 136 ng/mL. Further, in [5] (Tables 5B-5F (Examples 73-84)), the “Intravenous administration AUC” value is 4926 nM·min, the “Intravenous administration C0” value is recorded as 481 nM, the “Intravenous administration MRT” value came to 22.8 min and the “Intravenous administration T1/2” value was 20.3 min. In [5] (Tables 5B-5F (Examples 73-84)), the “Subcutaneous administration Cmax” value came out at 65.9 nM, the “Subcutaneous administration MRT” value amounted to 55.9 min, the “Subcutaneous administration T1/2” value was found to be 35.4 min and the BA was found to be 78%.

As for S1C(Asn(disialo))-SRIF28 [Example 63], at SSTR5 [7], the 50% inhibitory concentration (IC50) worked out at 1.61 nM and the Ki was found to be 0.91 nM. Moreover, at SSTR2 [8], the IC50 was determined as 0.61 nM and the Ki came to 0.33 nM. Besides, on SSTR1 [9], the inhibition constant (Ki) is 13 nM. At SSTR4 (setting [13]), the half-inhibitory concentration (IC50) turned out to be 0.13 nM. Also, at SSTR3 [10] (read-out: SSTR3 IC50), the IC50 was determined as 5.57 nM. Further, the Ki on SSTR3 [10] turned out to be 1.91 nM. Moreover, in data set [5] (Tables 5B-5F (Examples 73-84)), the “Intravenous administration AUC” value worked out at 6488 nM·min, the “Intravenous administration C0” value is recorded as 365 nM, the “Intravenous administration MRT” value is recorded as 35.9 min and the “Intravenous administration T1/2” value turned out to be 27.9 min. Moreover, in data set [5] (Tables 5B-5F (Examples 73-84)), the “Subcutaneous administration AUC” value was found to be 2935 nM·min, the “Subcutaneous administration Cmax” value amounted to 33.9 nM, the “Subcutaneous administration MRT” value is reported as 55.3 min and the “Subcutaneous administration T1/2” value stood at 34.0 min. In data set [5] (Tables 5B-5F (Examples 73-84)), this substance returned a BA of 45%.

For the substance “S1C(disialo).R13C(disialo)-SRIF28 [Example 22]”, at SSTR1 [1], half-maximal inhibition (IC50) was put at 177 nM and the affinity, expressed as Ki, was 147 nM. The inhibitory constant (Ki) on SSTR3 [2] was 3.77 nM. Moreover, at SSTR5 [3], the half-maximal inhibitory concentration (IC50) is 14.7 nM and the Ki turned out to be 8.33 nM. This substance also registered an IC50 against SSTR2 [4] of 6.28 nM. Also, in [5] (setting [11]), the “Intravenous administration AUC” value is 4029 nM·min, the “Intravenous administration C0” value came to 822 nM, the “Intravenous administration MRT” value was determined as 20.6 min and the “Intravenous administration t1/2” value came out at 23.4 min. For the same substance, in [5] (setting [11]), the “Subcutaneous administration AUC” value came to 3407 nM·min, the “Subcutaneous administration Cmax” value turned out to be 38.7 nM, the “Subcutaneous administration MRT” value was 67.7 min and the “Subcutaneous administration t1/2” value came to 39.6 min. In [5] (setting [12]), this substance registered a BA of 85%.
